Results published in ChEMBL document CHEMBL6121003, “Design, synthesis, and pharmacological evaluation of triazine-based PI3K/mTOR inhibitors for the potential treatment of non-small cell lung cancer” (Eur J Med Chem, 2025).

Chains of the proteins cited; added tags and fusions are not shown.
UniProt P42336, whole entry: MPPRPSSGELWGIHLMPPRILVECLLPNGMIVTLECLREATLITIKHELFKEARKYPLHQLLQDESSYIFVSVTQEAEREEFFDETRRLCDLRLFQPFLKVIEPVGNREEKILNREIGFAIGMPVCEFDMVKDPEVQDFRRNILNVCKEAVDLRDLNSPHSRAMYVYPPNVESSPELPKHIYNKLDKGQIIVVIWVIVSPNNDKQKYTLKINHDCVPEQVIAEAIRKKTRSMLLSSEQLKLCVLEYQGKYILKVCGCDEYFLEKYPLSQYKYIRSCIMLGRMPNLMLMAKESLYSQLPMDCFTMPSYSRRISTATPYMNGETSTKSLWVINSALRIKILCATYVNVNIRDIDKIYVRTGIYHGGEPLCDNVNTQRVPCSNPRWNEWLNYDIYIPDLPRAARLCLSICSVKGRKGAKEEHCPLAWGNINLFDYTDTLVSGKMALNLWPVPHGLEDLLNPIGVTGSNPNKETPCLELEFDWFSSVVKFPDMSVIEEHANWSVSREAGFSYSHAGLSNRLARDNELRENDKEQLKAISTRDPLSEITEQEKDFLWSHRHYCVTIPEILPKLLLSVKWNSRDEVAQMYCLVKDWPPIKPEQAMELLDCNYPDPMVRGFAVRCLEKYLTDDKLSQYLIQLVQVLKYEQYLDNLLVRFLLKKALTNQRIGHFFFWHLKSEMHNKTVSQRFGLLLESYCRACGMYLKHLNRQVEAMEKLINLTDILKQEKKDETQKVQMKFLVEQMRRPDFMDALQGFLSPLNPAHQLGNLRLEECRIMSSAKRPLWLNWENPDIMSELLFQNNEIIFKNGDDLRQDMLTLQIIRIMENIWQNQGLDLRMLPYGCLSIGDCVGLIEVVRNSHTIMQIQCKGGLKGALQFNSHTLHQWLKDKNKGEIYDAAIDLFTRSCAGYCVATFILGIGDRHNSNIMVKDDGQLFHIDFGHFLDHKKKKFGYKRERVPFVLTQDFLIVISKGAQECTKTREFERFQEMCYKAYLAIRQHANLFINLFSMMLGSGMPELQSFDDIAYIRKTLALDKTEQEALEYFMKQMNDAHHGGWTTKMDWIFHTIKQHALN

Test system: HCC827
Experiment: Antitumor activity against human HCC827 cells xenografted in nude male Balb/c mouse model assessed as tumor growth inhibition at 20 mg/kg, po administered daily for 2 weeks
Assay type: functional, organism-based
Conditions: not given

| SMILES | Activity |
| --- | --- |
| CN(C)C1CCN(C(=O)c2ccc(NC(=O)Nc3ccc(-c4nc(N5CCOCC5)nc(N5CCOCC5)n4)cc3)cc2)CC1 [GEDATOLISIB] | inactive |

Target: Phosphatidylinositol 4,5-bisphosphate 3-kinase catalytic subunit alpha isoform (Homo sapiens, UniProt P42336)
Conditions: dose 1.5 µM, time 1.0 hrs

| inhibition [%] | SMILES |
| --- | --- |
| < 70 | Fc1ccc(NC(=S)Nc2ccc(-c3nc(N4CCOCC4)nc(N4CCOCC4)n3)cc2)c(Cl)c1 |
| < 70 | Cc1ccc(NC(=S)Nc2ccc(-c3nc(N4CCOCC4)nc(N4CCOCC4)n3)cc2)cc1 |
| < 70 | Fc1ccc(NC(=S)Nc2ccc(-c3nc(N4CCOCC4)nc(N4CCOCC4)n3)cc2)cc1F |
| < 70 | Fc1ccc(NC(=S)Nc2ccc(-c3nc(N4CCOCC4)nc(N4CCOCC4)n3)cc2)cc1 |
| < 70 | S=C(Nc1ccc(-c2nc(N3CCOCC3)nc(N3CCOCC3)n2)cc1)Nc1ccc(Cl)c(Cl)c1 |
| < 70 | COc1ccc(NC(=S)Nc2ccc(-c3nc(N4CCOCC4)nc(N4CCOCC4)n3)cc2)cc1 |
| < 70 | N#Cc1ccc(NC(=S)Nc2ccc(-c3nc(N4CCOCC4)nc(N4CCOCC4)n3)cc2)cc1 |
| < 70 | Cc1cccc(NC(=S)Nc2ccc(-c3nc(N4CCOCC4)nc(N4CCOCC4)n3)cc2)c1 |
| < 70 | CC(C)(C)c1ccc(NC(=S)Nc2ccc(-c3nc(N4CCOCC4)nc(N4CCOCC4)n3)cc2)cc1 |
| > 70 | S=C(Nc1ccc(-c2nc(N3CCOCC3)nc(N3CCOCC3)n2)cc1)Nc1cccnc1 |
| < 70 | S=C(NCc1ccccc1)Nc1ccc(-c2nc(N3CCOCC3)nc(N3CCOCC3)n2)cc1 |
| < 70 | S=C(Nc1ccc(Cl)cc1)Nc1ccc(-c2nc(N3CCOCC3)nc(N3CCOCC3)n2)cc1 |
| < 70 | COc1ccc(NC(=S)Nc2ccc(-c3nc(N4CCOCC4)nc(N4CCOCC4)n3)cc2)cc1OC |
| < 70 | CC(=O)c1ccc(NC(=S)Nc2ccc(-c3nc(N4CCOCC4)nc(N4CCOCC4)n3)cc2)cc1 |
| < 70 | N#Cc1cccc(NC(=S)Nc2ccc(-c3nc(N4CCOCC4)nc(N4CCOCC4)n3)cc2)c1 |
| < 70 | S=C(Nc1ccccc1)Nc1ccc(-c2nc(N3CCOCC3)nc(N3CCOCC3)n2)cc1 |
| < 70 | FC(F)(F)c1ccc(NC(=S)Nc2ccc(-c3nc(N4CCOCC4)nc(N4CCOCC4)n3)cc2)cc1 |
| < 70 | Fc1ccc(NC(=S)Nc2ccc(-c3nc(N4CCOCC4)nc(N4CCOCC4)n3)cc2)c(F)c1 |

The source made the active and inactive calls. No cut-off for these calls is given here.
